We go through 92 compounds from PubChem BioAssay AID652104 (National Center for Advancing Translational Sciences (NCATS), 2013).

This is a selection; strong and weak results do not stand in their true shares. Inconclusive results are not listed. Some salts and complexes are drawn in separate pieces, as the source files them; their charges need not balance. Active and inactive are the calls of the source. Calls follow the shape of the dose curve; as a rule, active = well fitted activation curve with a large enough effect; inconclusive = small, poorly fitted or top-dose-only effect, or another doubt; inactive = no such curve, though single readings can be large or run the other way.

The nature of this experiment: qHTS of TDP-43 Inhibitors. Also: % of control where 0% means no effect; nearly all actives have a fitted effect of over 50% in size. The following applies: TDP-43 expressing yeast growth rescue, BacTiter-Glo, 24 h; at 46.1 µM (top of the series) unless noted. On the technique in general: qHTS replaces the single test concentration by a dilution series.
`CCOc1ncccc1C(=O)NCC1(N2CCOCC2)CCCCC1`: the growth rescue (activation) was inactive: 7.96%. For the compound `CN1CCC(Nc2ccc(F)c(Cl)c2)CC1`, the growth rescue (activation) is inactive: -29.7%. On to `CC(C)(C)OC(=O)N1CCC(Nc2ccccc2)CC1`, for which the growth rescue (activation) is inactive: -25.4% [at 0.397 µM].

As for `O=C(O)C1(Nc2ccccc2)CCN(Cc2ccccc2)CC1`, the growth rescue (activation) was inactive: 24%.

On to `NN(c1ccccc1)C1CCN(CCc2ccccc2)CC1`, for which the growth rescue (activation) was inactive: 15.5%. Turning to `O=c1[nH]c2ccccc2n1C1CCN(C(c2cc3ccccc3o2)c2nnnn2C2CCCC2)CC1` (configuration not stated), the growth rescue (activation) is inactive: 19.4%. For `CCCOc1ccc(C(=O)NCC2(N(C)C)CCCCC2)cc1`, the growth rescue (activation) is inactive: 3.58%. As for `COc1cccc(C(c2nnnn2C2CCCC2)N2CCC(n3c(=O)[nH]c4ccccc43)CC2)c1OC` (configuration not stated), the growth rescue (activation) was inactive: 0%.

For `COc1cc(OC)cc(C(=O)NCC2(N3CCOCC3)CCCCC2)c1`, the growth rescue (activation) was inactive: 12.6%. The figure for `COc1cc(C(=O)NCC2(N3CCOCC3)CCCCC2)cc(OC)c1OC` is inactive: 9.81%; for `COc1cccc(C(=O)N(c2cc(C)cc(C)c2)C2CCN(C(=O)OC(C)(C)C)CC2)c1` it is inactive: -13.5%; for `CCC(CO)(C(=O)OC1CN2CCC1CC2)c1ccccc1` (configuration not stated) it is inactive: -5.65%. Consider `CN1CCC(Nc2ccc(Cl)cc2)CC1`, for which the growth rescue (activation) is inactive: -10.9%. Take `COc1cccc(C(c2nnnn2C2CCCCC2)N2CCC(n3c(=O)[nH]c4ccccc43)CC2)c1OC` (configuration not stated): the growth rescue (activation) was inactive: 21%. As to `CN(C)C1(CNC(=O)c2ccc(C(C)(C)C)cc2)CCCCC1`, the growth rescue (activation) is inactive: -13.6%. On to `CC(=O)N(c1ccccc1)C1CCNCC1`, for which the growth rescue (activation) was inactive: -11%. The figure for `CCC(c1nnnn1C1CCCCC1)N1CCC(n2c(=O)[nH]c3ccccc32)CC1` (configuration not stated) is inactive: 0%. As for `COc1cc(OC)cc(C(=O)NCC2(N3CCCCC3)CCCCC2)c1`, the growth rescue (activation) is inactive: 4.5%.

Consider `O=c1[nH]c2ccccc2n1C1CCN(C(c2ccnc3ccccc23)c2nnnn2C2CCCCC2)CC1` (configuration not stated), for which the growth rescue (activation) was inactive: 17.3%. The figure for `Cc1ccc(C(=O)NCC2(N3CCCCC3)CCCCC2)o1` is inactive: 3.07%. The value for `Fc1ccccc1NC1CCN(Cc2ccccc2)CC1` was inactive: -16.7%. Turning to `Cc1ccc(NC2(C#N)CCN(Cc3ccccc3)CC2)cc1`, the growth rescue (activation) is inactive: -11.4%. In the case of `Cc1ccccc1NC1(C#N)CCN(Cc2ccccc2)CC1`, the growth rescue (activation) is inactive: -4.42%. The value for `CCN1CCC(Nc2cccc(F)c2)CC1` was inactive: 2.22%. Take `COc1ccc(C(c2nnnn2C2CCCCC2)N2CCC(n3c(=O)[nH]c4ccccc43)CC2)cc1` (configuration not stated): the growth rescue (activation) is inactive: 26.8%. Regarding `CC(C)(C)n1nnnc1C(c1ccnc2ccccc12)N1CCC(n2c(=O)[nH]c3ccccc32)CC1` (configuration not stated), the growth rescue (activation) was inactive: 9.36%. The figure for `Cc1ccccc1C(=O)NCC1(N(C)C)CCCCC1` is inactive: 13.2%; for `O=C(NCC1(N2CCCCC2)CCCCC1)c1ccco1` it is inactive: 14.5%.

Take `CC(C)(C)c1ccc(C(=O)NCC2(N3CCOCC3)CCCCC2)cc1`: the growth rescue (activation) was inactive: 12.9%. As for `CN(C)c1ccc(C(=O)NCC2(N3CCCCC3)CCCCC2)cc1`, the growth rescue (activation) is inactive: 7.64%.

As to `Cn1c(=O)[nH]cc(N(CCCl)CCCl)c1=O`, the growth rescue (activation) was inactive: 15.9%. In the case of `N#Cc1ccc(C(=O)NCC2(N3CCCCC3)CCCCC2)cc1`, the growth rescue (activation) is inactive: -15.2%. The figure for `O=C(NCC1(N2CCOCC2)CCCCC1)c1ccccc1[N+](=O)[O-]` is inactive: -33.2%; for `O=C(NCC1(N2CCOCC2)CCCCC1)c1ccc([N+](=O)[O-])cc1` it is inactive: 5.36%; for `CC(C)(C)OC(=O)N1CCC(N(C(=O)c2ccccc2)c2ccc(Cl)cc2)CC1` it is inactive: 10.5%. For `CCOC(=O)C(CC)C1=NC(C)(C)Cc2ccccc21.O=[N+]([O-])c1cc([N+](=O)[O-])c(O)c([N+](=O)[O-])c1` (configuration not stated), the growth rescue (activation) is inactive: 6.18%.

On to `CN(C)C1(CNC(=O)c2cccc(C#N)c2)CCCCC1`, for which the growth rescue (activation) is inactive: 0.44%.

As to `c1ccc(CN2CCC(Nc3ccccc3)CC2)cc1`, the growth rescue (activation) is inactive: 4.91%. The figure for `O=C(NCC1(N2CCOCC2)CCCCC1)c1ccccc1` is inactive: 4.36%. In the case of `CCCN1CCC(Nc2cc(OC)cc(OC)c2)CC1`, the growth rescue (activation) was inactive: 9.35%. The figure for `O=c1[nH]c2ccccc2n1C1CCN(C(c2ccccc2)c2nnnn2C2CCCC2)CC1` (configuration not stated) is inactive: 25.1%; for `CCCCn1nnnc1C(c1ccccc1)N1CCC(n2c(=O)[nH]c3ccccc32)CC1` (configuration not stated) it is inactive: 22.1%; for `COc1cc(C(=O)NCC2(N3CCOCC3)CCCCC2)cc(OC)c1C` it is inactive: 14.3%.

As to `O=C(NCC1(N2CCOCC2)CCCCC1)c1cc(Br)ccc1Cl`, the growth rescue (activation) was inactive: -0.177%. The value for `O=c1[nH]c2ccccc2n1C1CCN(C(c2cccs2)c2nnnn2C2CCCCC2)CC1` (configuration not stated) was inactive: 33.7%. As to `COc1ccc(C(=O)NCC2(N3CCOCC3)CCCCC2)cc1OC`, the growth rescue (activation) was inactive: -5.76%. The figure for `O=c1[nH]c2ccccc2n1C1CCN(C(c2ccnc3ccccc23)c2nnnn2C2CCCC2)CC1` (configuration not stated) is inactive: 0%; for `CCOC(=O)N1CCC(Nc2ccc(C)cc2)CC1` it is inactive: 20.5%; for `COc1cccc(C(c2nnnn2C(C)(C)C)N2CCC(n3c(=O)[nH]c4ccccc43)CC2)c1OC` (configuration not stated) it is inactive: 21.4%. As for `N/C(=N\O)c1c(N)no[n+]1[O-]`, the growth rescue (activation) is inactive: -55.9%. Consider `CCc1cc(C(=O)NCC2(N3CCCCC3)CCCCC2)sc1C`, for which the growth rescue (activation) was inactive: -4.76%. Take `O=C(OC1CN2CCC1CC2)C1c2ccccc2C=Cc2ccccc21` (configuration not stated): the growth rescue (activation) was inactive: 16.2%. The figure for `O=C(O)c1cccc(Nc2c([N+](=O)[O-])cc([N+](=O)[O-])cc2[N+](=O)[O-])c1` is inactive: 23.6%; for `O=c1[nH]c2ccccc2n1C1CCN(C(c2cccs2)c2nnnn2C2CCCC2)CC1` (configuration not stated) it is inactive: 34.2%; for `CCCCn1nnnc1C(c1cccc(OC)c1OC)N1CCC(n2c(=O)[nH]c3ccccc32)CC1` (configuration not stated) it is inactive: 12.2%.

Regarding `CC(C)c1ccc(NC2CCN(C(=O)OC(C)(C)C)CC2)cc1`, the growth rescue (activation) is inactive: -18.8%.

`CCCCn1nnnc1C(c1ccccc1OC(F)(F)F)N1CCC(n2c(=O)[nH]c3ccccc32)CC1` (configuration not stated): the growth rescue (activation) is inactive: 25.2%.

Consider `O=[N+]([O-])c1cc([N+](=O)[O-])c(OC2CCCCC2O)c([N+](=O)[O-])c1` (configuration not stated), for which the growth rescue (activation) is inactive: -13.9%. Take `CN(C)c1cccc(C(=O)NCC2(N3CCCCC3)CCCCC2)c1`: the growth rescue (activation) is inactive: -13%. On to `COc1cc(OC)c(C(=O)NCC2(N(C)C)CCCCC2)cc1OC`, for which the growth rescue (activation) is inactive: -3.29%.

`O=C(NCC1(N2CCOCC2)CCCCC1)c1cc(F)c(F)cc1Cl`: the growth rescue (activation) is inactive: 11.4%.

For `CCC(c1nnnn1C(C)(C)C)N1CCC(n2c(=O)[nH]c3ccccc32)CC1` (configuration not stated), the growth rescue (activation) was inactive: -0.318%. The figure for `CCCCn1nnnc1C(c1ccnc2ccccc12)N1CCC(n2c(=O)[nH]c3ccccc32)CC1` (configuration not stated) is inactive: 12.4%; for `O=C(OC1CN2CCC1CC2)c1ccc([N+](=O)[O-])cc1` (configuration not stated) it is inactive: -6.85%.

For the compound `CN1CCC(Nc2cccc(F)c2)CC1`, the growth rescue (activation) was inactive: 4.81%. As for `COc1ccc2c(c1O)-c1c(O)c(OC)cc3c1[C@H](C2)[N+](C)(C)CC3.O=[N+]([O-])c1cc([N+](=O)[O-])c([O-])c([N+](=O)[O-])c1[O-]`, the growth rescue (activation) is inactive: 21.9%.

For `O=C(NCC1(N2CCCCC2)CCCCC1)c1cncc(Br)c1`, the growth rescue (activation) is inactive: -17.7%. The value for `O=[N+]([O-])c1cc([N+](=O)[O-])c(Nc2ccc(Cl)cc2)c([N+](=O)[O-])c1` was inactive: -90.5%. The value for `COc1ccc(C(c2nnnn2C2CCCC2)N2CCC(n3c(=O)[nH]c4ccccc43)CC2)cc1` (configuration not stated) was inactive: 27.2%.

With `CCCCOc1ccccc1C(=O)NCC1(N2CCOCC2)CCCCC1`, the growth rescue (activation) is inactive: 5.03%. Regarding `Cc1ccc(C(=O)NCC2(N(C)C)CCCCC2)o1`, the growth rescue (activation) was inactive: 12.5%.

For `O=C(NCC1(N2CCOCC2)CCCCC1)c1ccccc1Br`, the growth rescue (activation) was inactive: 11.1%. Regarding `CCCOc1ccc(C(=O)NCC2(N(C)C)CCCCC2)cc1OC`, the growth rescue (activation) is inactive: -4.22%. Regarding `O=C(NCC1(N2CCCCC2)CCCCC1)c1ccc(OC(F)F)cc1`, the growth rescue (activation) was inactive: 24.2%.

As to `CCN1CCC(Nc2ccc(Cl)cc2)CC1`, the growth rescue (activation) was inactive: 15.7%. Regarding `O=c1[nH]c2ccccc2n1C1CCN(C(c2ccccc2OC(F)(F)F)c2nnnn2C2CCCC2)CC1` (configuration not stated), the growth rescue (activation) is inactive: -5.79%. As for `N#CC1(Nc2ccccc2)CCN(CCc2ccccc2)CC1`, the growth rescue (activation) is inactive: -8.79%. Consider `CSc1ccc(C(=O)NCC2(N3CCOCC3)CCCCC2)cc1`, for which the growth rescue (activation) was inactive: 5.54%. As for `O=C(NCC1(N2CCCCC2)CCCCC1)c1cccc([N+](=O)[O-])c1`, the growth rescue (activation) was inactive: 18.1%. `CCOc1ccc(C(=O)NCC2(N3CCOCC3)CCCCC2)cc1`: the growth rescue (activation) is inactive: 14%.

For the compound `O=[N+]([O-])c1cc([N+](=O)[O-])c(NCC2CCS(=O)(=O)C2)c([N+](=O)[O-])c1` (configuration not stated), the growth rescue (activation) is inactive: 12.3%. Regarding `CCCOc1cccc(C(=O)NCC2(N3CCOCC3)CCCCC2)c1`, the growth rescue (activation) is inactive: 2.71%.

On to `O=C(NCC1(N2CCCCC2)CCCCC1)c1cccc(C(F)(F)F)c1`, for which the growth rescue (activation) is inactive: -15.2%. For `COc1cc(C(=O)NCC2(N3CCCCC3)CCCCC2)ccc1OC(F)F`, the growth rescue (activation) was inactive: 14.2%. With `O=C(NCC1(N2CCOCC2)CCCCC1)c1cc(=O)[nH]c2ccccc12`, the growth rescue (activation) was inactive: -3.41%.

For `CN1CCN(CCOC(=O)C(O)(c2ccccc2)c2ccccc2)CC1`, the growth rescue (activation) is inactive: -18.6%. Take `CC(C)c1ccc(C(=O)NCC2(N3CCOCC3)CCCCC2)cc1`: the growth rescue (activation) is inactive: 3.77%. In the case of `COc1ccc(NC2CCN(C(=O)OC(C)(C)C)CC2)cc1`, the growth rescue (activation) is inactive: -3.33%. The figure for `CC(C)(C)n1nnnc1C(c1ccccc1)N1CCC(n2c(=O)[nH]c3ccccc32)CC1` (configuration not stated) is inactive: 20.8%; for `O=C(NCC1(N2CCOCC2)CCCCC1)c1ccc(Cl)cc1` it is inactive: -9.98%; for `O=C1CCN(Cc2ccccc2)CC1` it is inactive: -5.86%.

Consider `CCOc1ccc(C)cc1CN(CCCl)CCCl`, for which the growth rescue (activation) is inactive: -7.41%.
